Measurements as given in patent EP4741420A1, “PHARMACEUTICAL COMPOSITION FOR PREVENTING OR TREATING OBESITY COMPRISING GLP ANALOGUE AS ACTIVE INGREDIENT” (priority 2023, dated 2025).

Target: GLP-1R (on GLP-1R/CHO cells, DiscoverX 95-0062C2) (UniProt P43220)
Test: cell-based or functional assay

Question: For “Exendin-4 (from UniProt P26349) (peptide)”, which EC50, cAMP increase in GLP-1R/CHO cells, average (n=4) is on record?
Answer: 9.6 pM

Question: And the GLP-1 activity (EC50, pM)?
Answer: 7.1 pM

Question: What about the GLP-1 activity, Compared to GLP-1 (Exendin-4) of the same substance?
Answer: 100%

Question: And the Relative to GLP-1 (Exendin-4) %, cAMP in GLP-1R/CHO cells, average (n=4)?
Answer: 100%
